Molecular target: Voltage-gated inwardly rectifying potassium channel KCNH2 (Homo sapiens, UniProt Q12809)

By UniProt entry, the sequences of proteins in these tests, tags left out. Where a name states a change or a piece, a line headed by the entry shows the natural chain unless it says otherwise.
UniProt Q12809: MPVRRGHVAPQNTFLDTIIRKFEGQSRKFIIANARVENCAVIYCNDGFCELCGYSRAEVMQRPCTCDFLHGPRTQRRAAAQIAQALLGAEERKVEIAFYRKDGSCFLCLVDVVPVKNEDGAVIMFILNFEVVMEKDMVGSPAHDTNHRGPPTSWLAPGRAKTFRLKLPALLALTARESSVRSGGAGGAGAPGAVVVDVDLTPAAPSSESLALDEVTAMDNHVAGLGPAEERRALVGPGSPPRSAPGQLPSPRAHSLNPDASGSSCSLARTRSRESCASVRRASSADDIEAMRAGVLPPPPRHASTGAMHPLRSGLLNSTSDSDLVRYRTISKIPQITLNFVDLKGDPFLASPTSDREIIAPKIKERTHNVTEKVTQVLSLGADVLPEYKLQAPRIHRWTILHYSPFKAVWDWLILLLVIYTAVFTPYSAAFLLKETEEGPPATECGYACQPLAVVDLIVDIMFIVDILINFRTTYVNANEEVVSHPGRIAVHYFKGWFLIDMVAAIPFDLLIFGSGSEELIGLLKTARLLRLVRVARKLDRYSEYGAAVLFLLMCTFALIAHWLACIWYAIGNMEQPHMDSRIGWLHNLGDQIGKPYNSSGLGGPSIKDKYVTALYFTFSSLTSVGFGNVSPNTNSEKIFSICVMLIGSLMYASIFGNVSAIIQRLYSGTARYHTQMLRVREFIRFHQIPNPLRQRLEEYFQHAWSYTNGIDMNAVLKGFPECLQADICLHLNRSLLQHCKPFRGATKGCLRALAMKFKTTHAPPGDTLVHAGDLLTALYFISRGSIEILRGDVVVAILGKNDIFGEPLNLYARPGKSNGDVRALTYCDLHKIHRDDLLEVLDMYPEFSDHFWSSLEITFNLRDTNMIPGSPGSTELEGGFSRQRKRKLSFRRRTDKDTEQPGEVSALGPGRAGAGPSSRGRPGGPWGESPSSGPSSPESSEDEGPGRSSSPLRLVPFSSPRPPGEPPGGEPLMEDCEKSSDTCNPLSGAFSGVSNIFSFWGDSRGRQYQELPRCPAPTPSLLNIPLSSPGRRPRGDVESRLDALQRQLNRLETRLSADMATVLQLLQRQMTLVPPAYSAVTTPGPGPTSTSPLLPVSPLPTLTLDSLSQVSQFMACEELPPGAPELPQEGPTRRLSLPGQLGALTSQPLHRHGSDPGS

SMILES	Ki [µM]
C[C@@H]1CN(C(=O)[C@@H]2CN(C(C)(C)C)C[C@H]2c2ccc(F)cc2F)C[C@H](C)[C@@]1(O)c1ccc(F)cc1.Cl	7.91
C[C@@H]1CN(C(=O)[C@H]2CN(C3CCC3)C[C@@H]2c2ccc(F)cc2F)C[C@H](C)[C@@]1(O)c1ccccc1	5.87

— ChEMBL document CHEMBL1156187, “Discovery of a selective small-molecule melanocortin-4 receptor agonist with efficacy in a pilot study of sexual dysfunction in humans” (J Med Chem, 2010)
